These results are taken from ChEMBL document CHEMBL4402583, “Rational Substitution of ε-Lysine for α-Lysine Enhances the Cell and Membrane Selectivity of Pore-Forming Melittin” (J Med Chem, 2020).

In brackets after ≈: the same amount, converted by molar mass.

As usually defined, the MIC is the lowest concentration that inhibits growth of the organism.

What all share (assay type): functional
One assay has as its system Pseudomonas aeruginosa. Description: Antibacterial activity against Pseudomonas aeruginosa assessed as reduction in bacterial growth incubated for 24 hrs by broth microdilution method. Background: Broth dilution looks for growth in wells or tubes with falling amounts of substance.
In assay [1] the test system is Staphylococcus aureus. Description: Antibacterial activity against Staphylococcus aureus assessed as reduction in bacterial growth incubated for 24 hrs by broth microdilution method.
In assay [2] the test system is Staphylococcus aureus. Kind of assay: Antibacterial activity against methicillin-resistance Staphylococcus aureus assessed as reduction in bacterial growth incubated for 24 hrs by broth microdilution method.
For assay [3], the system named is Staphylococcus aureus. Description: Antibacterial activity against methicillin-sensitive Staphylococcus aureus assessed as reduction in bacterial growth incubated for 24 hrs by broth microdilution method.

Consider `CC[C@H](C)[C@H](NC(=O)CN)C(=O)NCC(=O)N[C@@H](C)C(=O)N[C@H](C(=O)N[C@@H](CC(C)C)C(=O)N[C@@H](CCCCN)C(=O)N[C@H](C(=O)N[C@@H](CC(C)C)C(=O)N[C@H](C(=O)N[C@H](C(=O)NCC(=O)N[C@@H](CC(C)C)C(=O)N1CCC[C@H]1C(=O)N[C@@H](C)C(=O)N[C@@H](CC(C)C)C(=O)N[C@H](C(=O)N[C@@H](CO)C(=O)N[C@@H](Cc1c[nH]c2ccccc12)C(=O)N[C@H](C(=O)N[C@@H](CCCCN)C(=O)N[C@@H](CCCNC(=N)N)C(=O)N[C@@H](CCCCN)C(=O)N[C@@H](CCCNC(=N)N)C(=O)N[C@@H](CCC(N)=O)C(=O)N[C@@H](CCC(N)=O)C(N)=O)[C@@H](C)CC)[C@@H](C)CC)[C@@H](C)O)[C@@H](C)O)C(C)C)C(C)C` [MELITTIN], for which the MIC in the assay with Pseudomonas aeruginosa is 4 to 32 µg/mL (≈ 1.41 to 11.2 µM); with Staphylococcus aureus [1], 4 to 8 µg/mL (≈ 1.41 to 2.81 µM); in the assay on Staphylococcus aureus [2], 4 to 8 µg/mL (≈ 1.41 to 2.81 µM); with Staphylococcus aureus [3], 4 to 8 µg/mL (≈ 1.41 to 2.81 µM).
